From ChEMBL document CHEMBL4680369, “Synthesis of HDAC Inhibitor Libraries via Microscale Workflow” (ACS Med Chem Lett, 2021)

By UniProt entry, the sequences of proteins in these tests, tags left out. Where a name states a change or a piece, a line headed by the entry shows the natural chain unless it says otherwise.
UniProt O15379: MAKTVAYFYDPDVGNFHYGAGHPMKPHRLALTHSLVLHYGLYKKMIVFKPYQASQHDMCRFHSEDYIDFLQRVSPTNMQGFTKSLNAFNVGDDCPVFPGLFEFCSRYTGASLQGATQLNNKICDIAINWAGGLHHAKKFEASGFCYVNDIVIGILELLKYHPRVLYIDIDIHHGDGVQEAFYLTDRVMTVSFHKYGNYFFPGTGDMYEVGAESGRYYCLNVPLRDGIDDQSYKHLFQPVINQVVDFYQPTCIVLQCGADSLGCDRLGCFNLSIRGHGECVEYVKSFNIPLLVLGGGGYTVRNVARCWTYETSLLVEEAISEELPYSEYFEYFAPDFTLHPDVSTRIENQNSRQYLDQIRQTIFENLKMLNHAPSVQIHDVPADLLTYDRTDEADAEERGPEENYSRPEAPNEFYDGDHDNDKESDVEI
UniProt Q13547, whole entry: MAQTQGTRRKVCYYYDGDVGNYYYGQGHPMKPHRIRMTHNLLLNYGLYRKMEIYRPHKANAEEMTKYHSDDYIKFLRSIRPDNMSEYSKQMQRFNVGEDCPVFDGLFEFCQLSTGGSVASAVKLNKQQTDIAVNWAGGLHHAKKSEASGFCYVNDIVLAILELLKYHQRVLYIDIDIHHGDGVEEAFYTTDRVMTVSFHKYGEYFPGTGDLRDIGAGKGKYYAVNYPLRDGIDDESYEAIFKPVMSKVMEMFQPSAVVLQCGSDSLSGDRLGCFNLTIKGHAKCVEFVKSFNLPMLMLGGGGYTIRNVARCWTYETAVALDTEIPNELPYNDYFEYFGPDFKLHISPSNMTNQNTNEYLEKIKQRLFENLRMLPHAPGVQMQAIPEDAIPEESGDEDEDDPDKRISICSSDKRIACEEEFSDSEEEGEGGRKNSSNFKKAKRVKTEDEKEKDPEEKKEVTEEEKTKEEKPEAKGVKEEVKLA

Tests used:
Histone deacetylase 3 [1] = target: T1, Histone deacetylase 3 (Homo sapiens, UniProt O15379); experiment: Inhibition of HDAC3 (unknown origin) using compound purified by traditional preparative HPLC work-flow
Histone deacetylase 3 [2] = target: T1, Histone deacetylase 3
Histone deacetylase 1 = Histone deacetylase 1 (Homo sapiens, UniProt Q13547); experiment: Inhibition of HDAC1 (unknown origin) using compound purified by traditional preparative HPLC work-flow

For `CCC(=O)CCCCC[C@H](NC(=O)[C@H]1CC12CCN(C)CC2)c1ncc(-c2cn(C)c3ccccc23)[nH]1`, the IC50 (Histone deacetylase 3 [1]) was 0.2 nM.
`CCC(=O)CCCCC[C@H](NC(=O)[C@H]1CC12CCN(C)CC2)c1ncc(-c2ccn3ncnc3c2)[nH]1` gave an IC50 (Histone deacetylase 3 [1]) of 55 nM and an IC50 (Histone deacetylase 3 [2]) of 33 nM.
`CCC(=O)CCCCC[C@H](NC(=O)[C@H]1CC12CCN(CC)CC2)c1ncc(-c2cc(C(F)(F)F)ccc2OC)[nH]1` was tested, and the IC50 (Histone deacetylase 3 [2]) was 0.7 nM.
`CCC(=O)CCCCC[C@H](NC(=O)[C@H]1CC12CCN(C)CC2)c1ncc(-c2ccc(C)nc2OC)[nH]1` gave an IC50 (Histone deacetylase 3 [1]) of 2.1 nM and an IC50 (Histone deacetylase 3 [2]) of 1.7 nM.
Work on `CCC(=O)CCCCC[C@H](NC(=O)[C@H]1CC12CCN(CC)CC2)c1ncc(-c2cc(C(C)C)c(F)cc2OC)[nH]1` yielded an IC50 (Histone deacetylase 3 [2]) of 14 nM.
`CCC(=O)CCCCC[C@H](NC(=O)[C@H]1CC12CCN(C)CC2)c1ncc(-c2ccnc(N3CCOCC3)c2F)[nH]1` showed an IC50 (Histone deacetylase 3 [1]) of 19 nM and an IC50 (Histone deacetylase 3 [2]) of 11 nM.
`CCC(=O)CCCCC[C@H](NC(=O)[C@H]1CC12CCN(C)CC2)c1ncc(-c2ccc(-c3cccnc3)nc2)[nH]1` showed an IC50 (Histone deacetylase 3 [1]) of 3.7 nM and an IC50 (Histone deacetylase 3 [2]) of 1.4 nM.
`CCOc1ncc(-c2cnc([C@H](CCCCCC(=O)CC)NC(=O)[C@H]3CC34CCN(C)CC4)[nH]2)cn1` showed an IC50 (Histone deacetylase 3 [1]) of 93 nM and an IC50 (Histone deacetylase 3 [2]) of 63 nM.
In the case of `CCC(=O)CCCCC[C@H](NC(=O)[C@H]1CC12CCN(C)CC2)c1ncc(C2=CC(=O)N(C)CC2)[nH]1`, the IC50 (Histone deacetylase 3 [1]) is reported as 257 nM and the IC50 (Histone deacetylase 3 [2]) is reported as 187 nM.
With `CCC(=O)CCCCC[C@H](NC(=O)[C@H]1CC12CCN(CC)CC2)c1ncc(-c2c(F)cccc2OC)[nH]1` the IC50 (Histone deacetylase 3 [2]) was 0.7 nM.
Work on `CCC(=O)CCCCC[C@H](NC(=O)[C@H]1CC12CCN(CC)CC2)c1ncc(-c2ccc(C(=O)Nc3cc(C(F)(F)F)ccn3)cc2OC)[nH]1` yielded an IC50 (Histone deacetylase 3 [2]) of 25 nM.
`CCC(=O)CCCCC[C@H](NC(=O)[C@H]1CC12CCN(C)CC2)c1ncc(-c2ccc(-n3nc(C)cc3C)cc2)[nH]1` gave an IC50 (Histone deacetylase 3 [1]) of 4.7 nM and an IC50 (Histone deacetylase 3 [2]) of 3.5 nM.
`CCC(=O)CCCCC[C@H](NC(=O)[C@H]1CC12CCN(CC)CC2)c1ncc(-c2cc([N+](=O)[O-])ccc2OC)[nH]1` gave an IC50 (Histone deacetylase 3 [2]) of 2.9 nM.
In the case of `CCOC(=O)c1cc2cc(OC)c(-c3cnc([C@H](CCCCCC(=O)CC)NC(=O)[C@H]4CC45CCN(CC)CC5)[nH]3)cc2o1`, the IC50 (Histone deacetylase 3 [2]) is reported as 0.4 nM.
With `CCC(=O)CCCCC[C@H](NC(=O)[C@H]1CC12CCN(C)CC2)c1ncc(-c2cnc3cccnc3c2)[nH]1` the IC50 (Histone deacetylase 3 [1]) was 20 nM and the IC50 (Histone deacetylase 3 [2]) was 11 nM.
Compound `CCC(=O)CCCCC[C@H](NC(=O)[C@H]1CC12CCN(C)CC2)c1ncc(-c2ccc(C(=O)NC3CCOC3)cc2)[nH]1` (stereo not given in full) has an IC50 (Histone deacetylase 3 [1]) of 3.4 nM and an IC50 (Histone deacetylase 3 [2]) of 4.5 nM.
In the case of `CCC(=O)CCCCC[C@H](NC(=O)[C@H]1CC12CCN(C)CC2)c1ncc(-c2cnc(-n3cc(C)cn3)nc2)[nH]1`, the IC50 (Histone deacetylase 3 [2]) is reported as 76 nM.
With `CCC(=O)CCCCC[C@H](NC(=O)[C@H]1CC12CCN(C)CC2)c1ncc(-c2ccc3[nH]c4ccccc4c3c2)[nH]1` the IC50 (Histone deacetylase 1) was 0.2 nM and the IC50 (Histone deacetylase 3 [1]) was 0.2 nM.
`CCC(=O)CCCCC[C@H](NC(=O)[C@H]1CC12CCN(CC)CC2)c1ncc(C2=CCC(C)N=C2OC)[nH]1` (stereo not given in full) showed an IC50 (Histone deacetylase 3 [2]) of under 0.2 nM.
Work on `CCOC(=O)C1CC1c1ccc(OC)c(-c2cnc([C@H](CCCCCC(=O)CC)NC(=O)[C@H]3CC34CCN(CC)CC4)[nH]2)c1` (stereo not given in full) yielded an IC50 (Histone deacetylase 3 [2]) of 0.7 nM.
With `CCC(=O)CCCCC[C@H](NC(=O)[C@H]1CC12CCN(CC)CC2)c1ncc(-c2c(F)cc(C(=O)Nc3cc(C(F)(F)F)ccn3)cc2OC)[nH]1` the IC50 (Histone deacetylase 3 [2]) was 16 nM.
Compound `CCC(=O)CCCCC[C@H](NC(=O)[C@H]1CC12CCN(CC)CC2)c1ncc(-c2cc(C(=O)OC)c(F)cc2OC)[nH]1` has an IC50 (Histone deacetylase 3 [2]) of 20 nM.
Compound `CCC(=O)CCCCC[C@H](NC(=O)[C@H]1CC12CCN(CC)CC2)c1ncc(-c2cccc(C(F)(F)F)c2OC)[nH]1` has an IC50 (Histone deacetylase 3 [2]) of 6.7 nM.
Compound `CCC(=O)CCCCC[C@H](NC(=O)[C@H]1CC12CCN(CC)CC2)c1ncc(-c2cc(C#N)ccc2OC)[nH]1` has an IC50 (Histone deacetylase 3 [2]) of 2.3 nM.
Compound `CCC(=O)CCCCC[C@H](NC(=O)[C@H]1CC12CCN(CC)CC2)c1ncc(-c2c(OC)ccc(F)c2F)[nH]1` has an IC50 (Histone deacetylase 3 [2]) of 289 nM.
